Measurements taken from PubChem BioAssay (NCI).
Only a part is listed here, and it is no random draw. Some salts and complexes are drawn in separate pieces, as the source files them; their charges need not balance. Activity calls are given as the source filed them. Cut-off read from the data, not from the text of the source: active = growth inhibition above about 70%; inactive = the rest.

Experiments:
[1] = NCI Yeast Anticancer Drug Screen. Data for the rad50 strain (AID 155);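 note: 0% = growth of vehicle-only cultures of the same strain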; conditions: S. cerevisiae rad50 strain growth inhibition; at 50.0 µM; hits give high values
[2] = NCI Yeast Anticancer Drug Screen. Data for the mec2-1 strain (AID 157); conditions: S. cerevisiae mec2-1 strain, at 50.0 µM, hits give high values
[3] = NCI Yeast Anticancer Drug Screen. Data for the sgs1 mgt1 strain (AID 161);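 note: 0% = growth of cultures given vehicle only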; conditions: S. cerevisiae sgs1 mgt1 strain, at 50.0 µM, hits give high values
[4] = NCI Yeast Anticancer Drug Screen. Data for the cln2 rad14 strain (AID 165);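 note: 0% = growth equal to vehicle treated cultures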; conditions: S. cerevisiae cln2 rad14 strain, at 50.0 µM, hits give high values
[5] = NCI Yeast Anticancer Drug Screen. Data for the bub3 strain (AID 167); conditions: S. cerevisiae bub3 mutant strain, at 50.0 µM, hits give high values
[6] = NCI Yeast Anticancer Drug Screen. Data for the mlh1 rad18 strain (AID 175); conditions: S. cerevisiae mlh1 rad18 strain growth inhibition; at 50.0 µM; hits give high values

Measured: growth inhibition

CCCCC(CCCC)NC(CC)CO.O=[N+]([O-])c1cc([N+](=O)[O-])c(O)c([N+](=O)[O-])c1
inactive: [1] 14.7% | [2] -17.6% | [3] 13.7% | [4] -21.6% | [5] 1.6% | [6] 0.3%

CCOP(=O)(CC)OP(=S)(OCC)OCC (centres undefined)
inactive: [1] 3.4% | [2] -5.15% | [3] 5.8% | [4] -39.9% | [5] -3.35% | [6] 3.25%

Cc1cccc2ccc3cccc(C)c3c12
inactive: [1] 14.9% | [2] 4.5% | [3] 21.7% | [4] -8.75% | [5] 8.25% | [6] 31.4%

Cc1cnc(N)[nH]1.O=[N+]([O-])c1cc([N+](=O)[O-])c(O)c([N+](=O)[O-])c1
inactive: [1] -9.45% | [2] 8.45% | [3] 0.95% | [4] -10.2% | [5] -12.6% | [6] -1.6%

O=[N+]([O-])c1cc([N+](=O)[O-])c(-c2nc(Cl)c3c([N+](=O)[O-])cc([N+](=O)[O-])cc3[n+]2[O-])c([N+](=O)[O-])c1
active: [1] 87% | [2] 88.5% | [3] 87.5% | [4] 86% | [5] 84% | [6] 85.2%

C[N+]1(CCCCCCCC[N+]2(C)CCCCCC2)CCCCCC1.O=[N+]([O-])c1cc([N+](=O)[O-])c(O)c([N+](=O)[O-])c1
inactive: [1] -28.3% | [2] -25.6% | [3] -25.5% | [4] -25.2% | [5] -13.6% | [6] -28.6%

CCCCOP(=O)(Cl)OCCCC
inactive: [1] -1.65% | [2] -34.6% | [3] 7.5% | [4] 13.4% | [5] 1.55% | [6] 15.2%

Cc1cccc(C2CCCN2C)c1.O=[N+]([O-])c1cc([N+](=O)[O-])c(O)c([N+](=O)[O-])c1
inactive: [1] 13.8% | [2] 6.7% | [3] 5.75% | [4] -3.3% | [5] -3.55% | [6] 13.4%

CN(C)Cc1cccs1.O=[N+]([O-])c1cc([N+](=O)[O-])c(O)c([N+](=O)[O-])c1
inactive: [1] 3.9% | [2] 11.1% | [3] -0.95% | [4] 7% | [5] -1.55% | [6] -25.6%

CCOC(=O)C(CCSC)Nc1nc2ccccc2o1.O=[N+]([O-])c1cc([N+](=O)[O-])c(O)c([N+](=O)[O-])c1 (centres undefined)
inactive: [1] 8.05% | [2] 5.1% | [3] 5.7% | [4] 10.6% | [5] 29.1% | [6] 9.6%

O=[N+]([O-])c1cc([N+](=O)[O-])cc([N+](=O)[O-])c1.c1ccc(CCc2cccc3c2ccc2ccccc23)cc1
inactive: [1] 10.9% | [2] -2.1% | [3] 9.45% | [4] -18.3% | [5] 48.6% | [6] 12.6%

O=[N+]([O-])c1ccccc1[N+](=O)[O-]
inactive: [1] 30.1% | [2] 2.4% | [3] 15.9% | [4] 8.45% | [5] -14.3% | [6] 13%

CN(C)[P+](N(C)C)(N(C)C)C(Cl)(Cl)Cl.O=[N+]([O-])c1cc([N+](=O)[O-])c([O-])c([N+](=O)[O-])c1
inactive: [1] 22.9% | [2] -53.9% | [3] 19.4% | [4] -5.05% | [5] -2.25% | [6] 27.9%

C[S+](C)(C)=O.O=[N+]([O-])c1cc([N+](=O)[O-])c(S(=O)(=O)[O-])c([N+](=O)[O-])c1
inactive: [1] 27.9% | [2] 13.2% | [3] 37.6% | [4] 22.5% | [5] 29.1% | [6] 23.3%

CC(CCO)NC1CCCC1.O=[N+]([O-])c1cc([N+](=O)[O-])c(O)c([N+](=O)[O-])c1
inactive: [1] 39% | [2] -3.3% | [3] 28.8% | [4] -2.55% | [5] 0.05% | [6] 13.8%

Nc1cc([N+](=O)[O-])cc([N+](=O)[O-])c1O
inactive: [1] 3.65% | [2] 33.1% | [3] 5.5% | [4] -13.6% | [5] 4.1% | [6] 23.4%

CC1CNCCN1.O=[N+]([O-])c1cc([N+](=O)[O-])c(O)c([N+](=O)[O-])c1
inactive: [1] 17.4% | [2] -10.6% | [3] 0.35% | [4] -39.1% | [5] -8.25% | [6] 5.8%

CC(=O)C(C)Sc1ccccn1.O=[N+]([O-])c1cc([N+](=O)[O-])c(O)c([N+](=O)[O-])c1
inactive: [1] 12.1% | [2] 4.8% | [3] 19.4% | [4] 5.9% | [5] -8.85% | [6] -13.4%

Cc1cccc2c1ccc1ccc3ccccc3c12.O=C1c2cc([N+](=O)[O-])ccc2-c2c1cc([N+](=O)[O-])cc2[N+](=O)[O-]
inactive: [1] 4.3% | [2] -9.8% | [3] 2.35% | [4] -8.65% | [5] 0.25% | [6] 31.7%

CCP1(=O)Nc2ccc(C)cc2N1 (centres undefined)
inactive: [1] -4.8% | [2] 13% | [3] -11.4% | [4] 27.2% | [5] -21.6% | [6] -12%

O=[N+]([O-])c1cc([N+](=O)[O-])c(O)c([N+](=O)[O-])c1.OC(c1ccccc1)C(c1ccccc1)c1cc(-c2ccccc2)n[nH]1 (centres undefined)
active: [1] 99.3% | [2] 99.5% | [3] 99.5% | [4] 99.4% | [5] 98.9% | [6] 99.3%

Cc1ccc2c(ccc3ccc4ccccc4c32)c1.O=C1c2cc([N+](=O)[O-])ccc2-c2c1cc([N+](=O)[O-])cc2[N+](=O)[O-]
inactive: [1] -0.5% | [2] 7.4% | [3] 22.9% | [4] -8.25% | [5] 7.35% | [6] 31.3%

Cc1cc(C(=O)O)c(CN)c(=O)[nH]1.O=[N+]([O-])c1cc([N+](=O)[O-])c(O)c([N+](=O)[O-])c1
inactive: [1] 32.6% | [2] -9.9% | [3] 29.5% | [4] -36.4% | [5] -0.05% | [6] 2.7%

ClCCN(CCCl)c1ccc(C2OCCO2)cc1.[C-]#[O+].[C-]#[O+].[C-]#[O+].[Cr]
inactive: [1] 14.2% | [2] -4% | [3] 6% | [4] -17.1% | [5] -1.35% | [6] 16.8%

CN(C)OCc1ccccc1.O=[N+]([O-])c1cc([N+](=O)[O-])c(O)c([N+](=O)[O-])c1
inactive: [1] -3.75% | [2] 0.9% | [3] 8.3% | [4] -8% | [5] -2.25% | [6] 1.6%

CCCCc1c(CCC)c(=O)[nH]c2ccccc12.O=[N+]([O-])c1cc([N+](=O)[O-])c(O)c([N+](=O)[O-])c1
inactive: [1] 27% | [2] 10.4% | [3] 58.6% | [4] 17.6% | [5] 15.9% | [6] 22.9%

NCCO.O=[N+]([O-])c1cc([N+](=O)[O-])c(O)c([N+](=O)[O-])c1
inactive: [1] -26.2% | [2] 11.5% | [3] -0.25% | [4] -40.4% | [5] 11.9% | [6] -4.3%

CCC1C(=O)CCN1C.O=[N+]([O-])c1cc([N+](=O)[O-])c(O)c([N+](=O)[O-])c1
inactive: [1] -2.8% | [2] 3.65% | [3] 24.3% | [4] -2.7% | [5] 11.6% | [6] -7.2%

CC(C)N([PH2+]Br)C(C)C.[C-]#[O+].[C-]#[O+].[C-]#[O+].[C-]#[O+].[Fe] (centres undefined)
inactive: [1] -4.95% | [2] -1% | [3] -21.9% | [4] -22.2% | [5] -0.65% | [6] -23.8%

CC(C)OP(C)(=O)O.[Cr]
inactive: [1] 5% | [2] -20.1% | [3] 1.35% | [4] -41.9% | [5] -3% | [6] -14.3%

Cc1ccc([N+](=O)[O-])cc1[N+](=O)[O-]
inactive: [1] 0.6% | [2] 17.1% | [3] 13.2% | [4] -26.2% | [5] -5.15% | [6] -0.85%

CC(C)C(CN(C)C)C(C)C.O=[N+]([O-])c1cc([N+](=O)[O-])c(O)c([N+](=O)[O-])c1
inactive: [1] 14.6% | [2] 3.7% | [3] 0.4% | [4] 9.2% | [5] -2.1% | [6] 5.4%

CN(C)Cc1ccccc1.O=[N+]([O-])c1cc([N+](=O)[O-])c(O)c([N+](=O)[O-])c1
inactive: [1] 17.2% | [2] -3.55% | [3] 2.35% | [4] 6.25% | [5] 17.6% | [6] -9.3%

Cc1ccc(N=[N-])cc1.[C-]#[O+].[Mo].[c-]1[c-][c-][cH-][c-]1.c1ccc([PH+](c2ccccc2)c2ccccc2)cc1
inactive: [1] -23.9% | [2] -14.1% | [3] -23.2% | [4] -41% | [5] -0.25% | [6] -25.7%
